ChEMBL document CHEMBL1135048, “Synthesis and biological evaluation of 2-indolyloxazolines as a new class of tubulin polymerization inhibitors. Discovery of A-289099 as an orally active antitumor agent” (Bioorg Med Chem Lett, 2002)

By UniProt entry, the sequences of proteins in these tests, tags left out.
UniProt Q6B856, whole entry: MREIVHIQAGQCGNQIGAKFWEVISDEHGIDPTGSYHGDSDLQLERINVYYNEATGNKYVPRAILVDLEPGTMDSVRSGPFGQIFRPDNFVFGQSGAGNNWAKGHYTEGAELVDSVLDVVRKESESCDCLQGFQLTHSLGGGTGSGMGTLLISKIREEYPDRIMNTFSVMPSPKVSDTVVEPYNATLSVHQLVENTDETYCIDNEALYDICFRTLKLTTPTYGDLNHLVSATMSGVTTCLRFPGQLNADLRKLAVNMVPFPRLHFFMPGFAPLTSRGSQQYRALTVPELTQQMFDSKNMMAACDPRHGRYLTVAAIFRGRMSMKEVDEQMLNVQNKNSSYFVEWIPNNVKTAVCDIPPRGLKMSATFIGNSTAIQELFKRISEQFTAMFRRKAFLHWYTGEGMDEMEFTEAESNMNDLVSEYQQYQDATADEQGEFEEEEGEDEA

Target: Tubulin beta chain (Bos taurus, UniProt Q6B856)
Test: Binding constant at colchicine site of bovine brain tubulin

SMILES	Ki [nM]
COc1cc([C@@H]2CN=C(c3ccc4c(ccn4C)c3)O2)cc(OC)c1OC	3690
COc1cc([C@H]2CN=C(c3ccc4c(ccn4C)c3)O2)cc(OC)c1OC	630
